# Biological target: T1, p110δ/p85α (Homo sapiens, UniProt O00329)
# Protein sequences, listed by entry. Tags and fused reporters are not part of them. Lines headed by an entry give the natural chain unless they say otherwise; changes in a name come on top.
# UniProt O00329, whole entry, species assumed: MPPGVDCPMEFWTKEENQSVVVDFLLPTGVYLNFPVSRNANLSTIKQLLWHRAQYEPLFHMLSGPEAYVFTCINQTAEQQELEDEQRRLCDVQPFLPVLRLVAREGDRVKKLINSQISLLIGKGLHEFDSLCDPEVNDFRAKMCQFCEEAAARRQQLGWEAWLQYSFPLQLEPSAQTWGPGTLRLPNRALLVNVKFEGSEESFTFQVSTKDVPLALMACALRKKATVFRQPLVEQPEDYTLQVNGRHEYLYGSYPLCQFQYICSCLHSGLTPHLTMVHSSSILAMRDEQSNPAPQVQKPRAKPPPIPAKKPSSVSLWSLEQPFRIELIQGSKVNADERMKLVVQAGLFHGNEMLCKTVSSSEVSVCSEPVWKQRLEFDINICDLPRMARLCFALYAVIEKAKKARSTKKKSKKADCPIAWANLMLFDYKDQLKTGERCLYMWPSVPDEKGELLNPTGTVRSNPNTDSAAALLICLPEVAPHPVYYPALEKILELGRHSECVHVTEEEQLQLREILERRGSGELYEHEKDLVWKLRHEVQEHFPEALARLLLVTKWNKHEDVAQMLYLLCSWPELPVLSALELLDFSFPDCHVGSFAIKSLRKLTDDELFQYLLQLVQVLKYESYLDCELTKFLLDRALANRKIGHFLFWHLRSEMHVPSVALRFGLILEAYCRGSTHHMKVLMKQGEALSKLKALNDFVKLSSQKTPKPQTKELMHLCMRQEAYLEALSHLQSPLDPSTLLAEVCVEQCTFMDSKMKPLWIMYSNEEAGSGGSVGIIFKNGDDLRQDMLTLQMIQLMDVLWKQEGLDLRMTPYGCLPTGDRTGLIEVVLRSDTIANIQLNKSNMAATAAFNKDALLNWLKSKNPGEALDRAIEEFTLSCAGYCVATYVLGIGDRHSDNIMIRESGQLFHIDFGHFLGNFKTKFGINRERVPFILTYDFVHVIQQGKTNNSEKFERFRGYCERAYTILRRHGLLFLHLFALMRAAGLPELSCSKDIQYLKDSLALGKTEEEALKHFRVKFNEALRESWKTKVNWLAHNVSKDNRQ
# T1 construct: purchased Invitrogen
# Assay: Transcreener KINASE Assay, kinase inhibition of p110δ/p85α
# Format: biochemical
# Conditions: read-out: PI3Kδ IC50
structure (smiles),measurement,value
N#Cc1c(N)ncnc1N1CCC[C@H]1c1nn2cccc2c(=O)n1-c1ccccc1 [Compound 5],IC50,3 nM
